The values below come from US10995087B2, “Crystal form of URAT1 inhibitor, and preparation method therefor” (MEDSHINE DISCOVERY INC., priority 2017, dated 2021).

Protein sequences, listed by entry. Tags and fused reporters are not part of them. Lines headed by an entry give the natural chain unless they say otherwise; changes in a name come on top.
UniProt Q96S37: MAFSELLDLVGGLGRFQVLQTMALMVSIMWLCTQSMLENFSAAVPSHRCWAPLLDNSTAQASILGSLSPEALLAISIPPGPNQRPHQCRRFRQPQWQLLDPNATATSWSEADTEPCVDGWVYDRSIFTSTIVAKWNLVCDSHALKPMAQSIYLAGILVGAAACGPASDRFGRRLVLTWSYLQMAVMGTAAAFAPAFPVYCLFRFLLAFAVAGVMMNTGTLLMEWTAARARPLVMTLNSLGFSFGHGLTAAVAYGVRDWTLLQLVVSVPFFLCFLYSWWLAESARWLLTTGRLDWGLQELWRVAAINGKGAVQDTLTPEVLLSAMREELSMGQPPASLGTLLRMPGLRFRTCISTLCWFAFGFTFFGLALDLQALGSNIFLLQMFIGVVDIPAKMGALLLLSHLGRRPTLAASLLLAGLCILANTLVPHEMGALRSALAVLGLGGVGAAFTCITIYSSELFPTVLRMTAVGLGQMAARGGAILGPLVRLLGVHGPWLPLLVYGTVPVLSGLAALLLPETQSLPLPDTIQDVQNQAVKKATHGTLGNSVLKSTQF

In the assay the target is T1, uric acid transporter URAT1 (Homo sapiens, UniProt Q96S37).
T1 construct: expressed in transfected cells; host or cells: HEK293A, stably overexpressing URAT1; the empty vector control is HEK293A-pcDNA3.1
Put plainly: Uptake cell inhibition experiment: URAT1-mediated 14C-uric acid uptake in HEK293A-URAT1 cells. Type of assay: cell-based. The conditions noted are these: 2 min administration, n=3, read-out: IC50, inhibition of uptake of 14C-UA mediated by URAT1. How it is done:
1. Preparation of each working solution
1) DMSO was used as the solvent of a 200-fold working solution, the storing solution was diluted to a 200-fold working solution at each administration concentration.
2) Hanks balanced salt solution (without Cl^−) was used as the solvent for the 2-fold working solution of transport protein URAT1, and then 200-fold working solution in 1) was diluted by 100 times to obtain a 2-fold working solution at each administration concentration. […]
First, the culture medium in the culture plate was removed, and it was washed once with Hanks buffer salt solution (without Cl^−). […] The cell lysate was taken into a scintillation vial, and 3 mL of Aquasol-2 scintillation liquid was added, and the radioactive intensity in the sample was measured by using Tri-Carb 2910TR liquid scintillation instrument. […]
Three repeats (i.e. n=3) were set for each administration concentration. Mean±standard error (SD) was calculated using statistical formulas in Microsoft® Excel 2010 software.
According to the inhibitory rate (IR) for each transporter at each administration concentration, IC50 value, the effect of the compound on the transport activity of the drug transporter was calculated through Prism5.0 in combination with the Forecast function in Microsoft® Excel 2010 software. […]

As a reminder, the IC50 is the concentration at which inhibition is half-maximal.

Take `O=C(O)CSc1nnc(Br)n1-c1ccc(C2CC2)c2ccccc12` [lesinurad, reference compound]: the 50% inhibitory concentration (IC50) was 6.01 µM.
